# Cneo AK release: causes C. neoformans cell lysis | adenylate kinase release luminescence, 4 h; normalised: neutral wells 0, clomiphene wells 100 | lysis activity, % at 15 µM | 360,000 compounds, 0.2% hits | AID 651654;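 active = mean lysis activity across replicates of at least 80%, whatever share of replicates individually reach that level; inactive = mean lysis activity below 80%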
#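 Test system: log-phase Cryptococcus neoformans yeast cells. Input: 5 × 10^6 yeast cells/mL. Medium: fresh YPD growth medium. Doses: single dose. Incubation: static 4 h at 37 °C with compound, 1 h detection. Measured by: luminescent adenylate kinase detection reagent. Read-out: signal increase indicating cell lysis. Benchmarks: Clomiphene.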
# Yeast UUG start: modulators of start codon recognition fidelity in yeast; S. cerevisiae UUG-firefly luciferase reporter, luminescence/redox ratio; activity score, % at 18.7 µM; hit rate 0.13% among 350,000; AID 602363;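 active = replicate mean at a twofold rise or more, about +100% in these data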;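 note: firefly luciferase made from a UUG start codon reports start codon fidelity; reporter light over untreated wells divided by growth signal over untreated wells; some hits fall short of that in this replicate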
# DENV2 CPE rescue: protects cells from dengue virus 2 cytopathic effect; CPE inhibition, % at 9.99 µM; 350,000 compounds, 1.7% hits; DENV2-infected cells, cytopathic effect rescue, plate reader; AID 651640; in the data active = CPE inhibition above about 20%, passing the limit was not always enough; inconclusive = no clear call, values can overlap the other calls; tested in BHK-21 cells;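 also: 0% = median of neutral control wells and 100% = median of positive control wells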
# E-selectin induc: induces E-selectin expression in human endothelial cells; P16581; HUVEC E-selectin immunofluorescence imaging; normalized: neutral wells 0, TNF-alpha wells 100; activation, % at 7.58 µM; 260,000 compounds, 0.37% hits; AID 686992;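 active = mean E-selectin-positive cell signal at least 10% of the positive control, reached in at least 60% of replicates, without over 20% cell loss; inconclusive = no rule given, readout overlaps actives, possibly toxicity-flagged; inactive = the rest, including those meeting only one limit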
#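 material = human umbilical vein endothelial cells (HUVEC), E-selectin induction | quantity = 3,000 cells/well | medium = EGM-2 growth medium on 0.1% gelatin-coated wells | technique = immunofluorescence imaging | read-out basis = % PE-positive cells | control set = TNF-alpha positive control, DMSO neutral control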
# An asterisk follows results filed as active; ? = inconclusive; nt = not tested or not shown; ! = repeats disagree. Rows were chosen to be rich in hits. Some 1.8% of all compounds tested hit in one or more screens of this group.
entry	compound	Yeast UUG start	E-selectin induc
1	O=S(=O)(N[C@H]1CC[C@@H](CCn2cc(-c3cccnc3)nn2)O[C@H]1CO)c1ccccc1	-11	-1
2	CC(C)NC(=O)N(C)C[C@H]1Oc2ccc(NC(=O)CCN3CCOCC3)cc2CC(=O)N([C@H](C)CO)C[C@@H]1C	10	0
3	CCCNC(=O)Nc1ccc2c(c1)C(=O)N(C)C[C@@H](OC)[C@H](C)CN(S(C)(=O)=O)[C@H](C)CO2	nt	0
4	CC(=O)NC1C(=O)N(CCN2CCOCC2)c2ccc(F)cc21 (stereo not given)	nt	53*
5	CCN1C(=O)/C(=C/C=C2/Sc3ccc4ccccc4c3N2CCO)SC1=S	-16	34*
6	COCC(=O)N(C)C[C@H]1Oc2ncc(C#CC(C)(C)O)cc2C(=O)N([C@@H](C)CO)C[C@@H]1C	nt	0
7	COc1ccc(C#Cc2ccc([C@H]3[C@H](CO)N4CCCCN(C(=O)c5ccncc5)C[C@@H]34)cc2)cc1	-4	-1
8	C[C@@H](O)C#Cc1ccc([C@@H]2[C@H](CO)N3CCCCN(C(=O)c4ccncc4)C[C@@H]23)cc1	11	1
9	COc1ccc(C#Cc2ccc([C@@H]3[C@@H](CO)N4CCCCN(C(=O)c5ccncc5)C[C@H]34)cc2)cc1	10	0
10	COc1ccc(C#Cc2ccc([C@H]3[C@@H](CO)N4CCCCN(C(=O)c5ccncc5)C[C@@H]34)cc2)cc1	7	0
11	C[C@H](O)C#Cc1ccc([C@H]2[C@@H](CO)N3CCCCN(C(=O)c4ccncc4)C[C@@H]23)cc1	-3	0
12	CC(=O)N(C)C[C@H]1Oc2ncc(-c3ccccc3F)cc2C(=O)N([C@@H](C)CO)C[C@@H]1C	-2	0

entry	Cneo AK release	DENV2 CPE rescue
1	-2	28*
2	-3	-2
3	nt	6
4	nt	7
5	1	-1
6	nt	nt
7	7	47*
8	5	8
9	3	28*
10	-2	59*
11	2	-9
12	-5	?

# Later entries
entry	compound	Yeast UUG start	E-selectin induc
13	Cc1ccc(C(=O)NCC(=O)Nc2ccc(S(=O)(=O)Nc3cc(C)nc(C)n3)cc2)cc1	-10	nt
14	COc1ccc(CN(C)C[C@H]2Oc3c(NC(=O)CCCCCC(=O)Nc4ccccc4N)cccc3C(=O)N([C@H](C)CO)C[C@@H]2C)cc1	nt	0
15	Cc1noc(C)c1NC(=O)Nc1ccc2c(c1)C(=O)N([C@@H](C)CO)C[C@@H](C)[C@H](CN(C)S(C)(=O)=O)OCCCC[C@@H](C)O2	nt	0
16	C[C@H](CO)N1C[C@H](C)[C@@H](CN(C)C(=O)Nc2ccc3c(c2)OCO3)Oc2ccc(NC(=O)C3CC3)cc2CC1=O	-4	1
17	C[C@@H]1CN([C@H](C)CO)C(=O)Cc2cc(NC(=O)C3CC3)ccc2O[C@@H]1CN(C)Cc1ccc2c(c1)OCO2	-6	29*
18	C[C@@H]1CN([C@@H](C)CO)C(=O)Cc2cc(NC(=O)C3CC3)ccc2O[C@H]1CN(C)C(=O)Nc1ccc2c(c1)OCO2	23	0
19	CC(=O)OCCCN(C)CC/C=C1/c2ccccc2CSc2ccccc21	nt	nt
20	O=C(NCC[C@@H]1CC[C@H](NC(=O)C2CCCC2)[C@@H](CO)O1)c1ccc(F)cc1	-8	-1
21	COc1ccc(CC(=O)OCC(=O)c2ccc(OC)c(OC)c2)cc1	3	0
22	CCC(=O)Nc1ccc2c(c1)OC[C@@H](C)N(C(=O)Cc1ccccn1)C[C@@H](C)[C@H](OC)CN(C)C2=O	5	0
23	COc1ccc(S(=O)(=O)N2CCCCN3[C@H](CO)[C@H](c4ccc(C#CC(C)C)cc4)[C@H]3C2)cc1	4	0
24	CCn1c(SCC(=O)N2CCCCCC2)nc2c([nH]c3ccccc32)c1=O	-14	0

entry	Cneo AK release	DENV2 CPE rescue
13	-3	56*
14	nt	-8
15	nt	-6
16	1	54*
17	-5	0
18	1	6
19	nt	43*
20	2	9
21	-1	30*
22	2	10
23	7	-25
24	-3	63*

# One compound at a time (already shown):
# Profile of C[C@@H]1CN([C@H](C)CO)C(=O)Cc2cc(NC(=O)C3CC3)ccc2O[C@@H]1CN(C)Cc1ccc2c(c1)OCO2 : Yeast UUG start = -6; E-selectin induc = 29*; Cneo AK release = -5; DENV2 CPE rescue = 0
# Profile of COc1ccc(S(=O)(=O)N2CCCCN3[C@H](CO)[C@H](c4ccc(C#CC(C)C)cc4)[C@H]3C2)cc1 : Yeast UUG start = 4; E-selectin induc = 0; Cneo AK release = 7; DENV2 CPE rescue = -25

# The list continues:
entry	compound	Yeast UUG start	E-selectin induc
25	C[C@H]1CN([C@@H](C)CO)C(=O)c2cc(NC(=O)NC3CCCCC3)ccc2O[C@@H]1CN(C)S(=O)(=O)c1ccccc1	0	0
26	C[C@H]1CN([C@@H](C)CO)C(=O)c2cc(C#CCc3ccccc3)cnc2O[C@@H]1CN(C)C(=O)C1CCC1	nt	0
27	CCCNC(=O)N(C)C[C@@H]1Oc2ncc(C#CCc3ccccc3)cc2C(=O)N([C@@H](C)CO)C[C@@H]1C	36	6
28	C[C@H]1CN([C@@H](C)CO)C(=O)c2cc(-c3cccnc3)cnc2O[C@H]1CN(C)C(=O)C1CCC1	-11	1
29	C[C@H](CO)N1C[C@H](C)[C@@H](CN(C)C(=O)C2CCC2)Oc2ncc(C#CCc3ccccc3)cc2C1=O	11	0
30	C[C@@H]1CN([C@H](C)CO)C(=O)c2cc(C#Cc3cccc(F)c3)cnc2O[C@H]1CN(C)C(=O)C1CCC1	11	67*
31	CCCNC(=O)N(C)C[C@@H]1Oc2ncc(C#CCc3ccccc3)cc2C(=O)N([C@H](C)CO)C[C@H]1C	17	0
32	COc1ccc(S(=O)(=O)Nc2ccc3c(c2)C(=O)N([C@H](C)CO)C[C@@H](C)[C@H](CN(C)C(=O)Nc2ccc(F)cc2)O3)cc1	9	0
33	COc1ccc(CN(C)C[C@H]2Oc3ccc(NS(=O)(=O)c4ccc(OC)cc4)cc3CC(=O)N([C@@H](C)CO)C[C@@H]2C)cc1	-12	0
34	CO[C@@H]1CN(C)C(=O)c2ccc(NC(=O)C3CC3)cc2OC[C@H](C)N(C(=O)c2cnccn2)C[C@@H]1C	48	0
35	C[C@@H]1CN([C@@H](C)CO)C(=O)c2cc(C#Cc3cccc(F)c3)cnc2O[C@@H]1CN(C)C(=O)C1CCC1	1	0
36	C[C@H](CO)N1C[C@H](C)[C@@H](CN(C)C)Oc2ccc(NC(=O)Nc3cccc4ccccc34)cc2CC1=O	-1	1

entry	Cneo AK release	DENV2 CPE rescue
25	0	-9
26	nt	11
27	97*	?
28	-1	24*
29	-3	60*
30	-3	-6
31	2	4
32	-5	-8
33	-2	-3
34	7	-13
35	49	87*
36	32	39*

# Results in sequence from the entries so far.
# Nos. 31–35 in Cneo AK release, in turn: 2, -5, -2, 7, 49
# Nos. 31–35 in DENV2 CPE rescue, in turn: 4, -8, -3, -13, 87*

# (cont.)
entry	compound	Yeast UUG start	E-selectin induc
37	C[C@@H]1CN([C@@H](C)CO)C(=O)Cc2cc(NC(=O)Nc3cccc4ccccc34)ccc2O[C@@H]1CN(C)S(C)(=O)=O	5	-5
38	C[C@H](CO)N1C[C@H](C)[C@@H](CN(C)C(=O)Nc2cccc3ccccc23)Oc2ccc(NC(=O)Cc3ccccc3)cc2CC1=O	-1	20
39	C[C@H](CO)N1C[C@H](C)[C@H](CN(C)C(=O)Nc2cccc3ccccc23)Oc2ccc(NC(=O)Cc3ccccc3)cc2CC1=O	11	-12
40	C[C@H](CO)N1C[C@H](C)[C@H](CN(C)C(=O)NC2CCCCC2)Oc2ccc(NC(=O)Nc3cccc4ccccc34)cc2CC1=O	-9	-3
41	C[C@@H]1CN([C@H](C)CO)C(=O)Cc2cc(NC(=O)Nc3cccc4ccccc34)ccc2O[C@@H]1CN(C)C(=O)NC1CCCCC1	10	nt
42	COc1ccc([Si](C)(C)[C@H]2[C@H](CC(=O)N(CCO)Cc3ccccc3)O[C@@]3(C(=O)N(C)c4ccccc43)[C@@H]2C)cc1	-3	nt

entry	Cneo AK release	DENV2 CPE rescue
37	1	66*!
38	-25	14
39	102*	-15
40	-4	-4
41	11	22*
42	-2	-14
